Measured values reported in patent US6420438B1, “1-amino-7-isoquinoline derivatives as serine protease inhibitors” (Tularik Limited, priority 1998, dated 2002).

Amino acid sequences for entries named in this document (tags omitted). Residues count along the entry.
UniProt P00747, 97-580 partner limits assumed: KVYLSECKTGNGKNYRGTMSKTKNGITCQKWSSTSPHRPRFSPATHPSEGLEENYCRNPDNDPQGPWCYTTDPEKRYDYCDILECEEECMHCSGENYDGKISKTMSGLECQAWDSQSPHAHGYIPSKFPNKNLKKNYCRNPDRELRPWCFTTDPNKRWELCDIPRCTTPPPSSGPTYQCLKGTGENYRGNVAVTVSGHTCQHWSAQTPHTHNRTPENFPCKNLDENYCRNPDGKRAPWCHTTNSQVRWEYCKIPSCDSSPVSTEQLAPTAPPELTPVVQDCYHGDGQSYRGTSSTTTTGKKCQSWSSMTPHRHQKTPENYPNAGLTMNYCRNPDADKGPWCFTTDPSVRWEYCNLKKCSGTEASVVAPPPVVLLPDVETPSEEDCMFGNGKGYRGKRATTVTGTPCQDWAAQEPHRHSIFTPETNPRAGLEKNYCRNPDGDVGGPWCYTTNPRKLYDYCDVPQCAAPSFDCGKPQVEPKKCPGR
UniProt P00747, 581-810 limits assumed: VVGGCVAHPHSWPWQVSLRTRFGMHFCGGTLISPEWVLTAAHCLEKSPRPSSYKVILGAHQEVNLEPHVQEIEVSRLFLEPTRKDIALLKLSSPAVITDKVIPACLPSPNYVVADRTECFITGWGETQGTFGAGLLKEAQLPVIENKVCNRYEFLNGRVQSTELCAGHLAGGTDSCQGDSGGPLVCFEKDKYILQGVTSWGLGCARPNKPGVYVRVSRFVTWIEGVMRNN

Target: plasmin (Homo sapiens, UniProt P00747)
Assay: Enzyme inhibition assay, chromogenic substrate pefachrome-PL
Type: biochemical
Settings: room temperature, 0.1M phosphate buffer, pH7.4

Structure (SMILES): N=C(N)c1ccccc1 [benzamidine]
- pKi: 6.70

pKi: −log10 of the molar value.
